Results: PubChem BioAssay (NCATS)
This is a selection; strong and weak results do not stand in their true shares. Inconclusive results are not listed. For some of these results: Measured potencies and affinities stand elsewhere. Active and inactive are the calls of the source. Unless noted, calls come from the whole dose curve.

Chains of the proteins cited; added tags and fusions are not shown. Lines headed by an entry give the natural chain unless they say otherwise; changes in a name come on top.
UniProt P03372, whole entry, looked up: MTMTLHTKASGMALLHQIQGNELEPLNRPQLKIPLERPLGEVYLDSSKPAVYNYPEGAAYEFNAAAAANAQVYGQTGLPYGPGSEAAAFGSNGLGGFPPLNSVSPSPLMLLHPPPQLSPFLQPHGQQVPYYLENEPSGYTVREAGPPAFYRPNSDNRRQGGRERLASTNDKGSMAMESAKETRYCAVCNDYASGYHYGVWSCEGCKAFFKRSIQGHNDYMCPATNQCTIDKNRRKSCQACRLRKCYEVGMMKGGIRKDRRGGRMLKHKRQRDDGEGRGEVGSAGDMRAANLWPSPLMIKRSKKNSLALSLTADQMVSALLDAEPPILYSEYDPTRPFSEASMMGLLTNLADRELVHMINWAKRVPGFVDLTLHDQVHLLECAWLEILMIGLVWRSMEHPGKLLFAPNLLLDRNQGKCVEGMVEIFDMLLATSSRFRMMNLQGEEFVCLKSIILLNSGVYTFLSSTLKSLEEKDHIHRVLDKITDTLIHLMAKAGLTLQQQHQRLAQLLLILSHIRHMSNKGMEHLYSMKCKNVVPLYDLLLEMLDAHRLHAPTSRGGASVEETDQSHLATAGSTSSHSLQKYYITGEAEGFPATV
UniProt P10275: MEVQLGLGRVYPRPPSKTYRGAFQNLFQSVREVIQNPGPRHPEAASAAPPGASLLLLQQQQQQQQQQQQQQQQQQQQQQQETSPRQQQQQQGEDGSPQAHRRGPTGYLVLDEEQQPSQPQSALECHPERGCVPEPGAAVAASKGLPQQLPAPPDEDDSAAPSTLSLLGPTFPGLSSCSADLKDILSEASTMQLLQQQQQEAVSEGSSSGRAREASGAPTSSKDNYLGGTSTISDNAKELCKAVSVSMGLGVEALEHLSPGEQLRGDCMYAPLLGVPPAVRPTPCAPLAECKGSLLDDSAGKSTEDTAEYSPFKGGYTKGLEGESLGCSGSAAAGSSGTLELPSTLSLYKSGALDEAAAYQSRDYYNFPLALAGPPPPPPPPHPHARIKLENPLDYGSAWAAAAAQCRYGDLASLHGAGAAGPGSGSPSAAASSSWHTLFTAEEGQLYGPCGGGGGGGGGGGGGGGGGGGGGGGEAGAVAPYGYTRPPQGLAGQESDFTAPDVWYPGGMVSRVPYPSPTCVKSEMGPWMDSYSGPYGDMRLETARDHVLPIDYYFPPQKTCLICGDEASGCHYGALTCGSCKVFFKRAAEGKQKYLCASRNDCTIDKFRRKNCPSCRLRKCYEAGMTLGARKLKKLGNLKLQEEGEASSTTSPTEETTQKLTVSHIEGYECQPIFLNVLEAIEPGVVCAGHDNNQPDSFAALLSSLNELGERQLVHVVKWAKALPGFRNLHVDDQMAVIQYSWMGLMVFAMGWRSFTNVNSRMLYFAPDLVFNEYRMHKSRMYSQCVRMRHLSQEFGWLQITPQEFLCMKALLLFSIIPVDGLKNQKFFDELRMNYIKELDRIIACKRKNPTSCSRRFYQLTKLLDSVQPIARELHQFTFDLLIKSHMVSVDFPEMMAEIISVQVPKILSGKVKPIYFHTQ
UniProt Q03181: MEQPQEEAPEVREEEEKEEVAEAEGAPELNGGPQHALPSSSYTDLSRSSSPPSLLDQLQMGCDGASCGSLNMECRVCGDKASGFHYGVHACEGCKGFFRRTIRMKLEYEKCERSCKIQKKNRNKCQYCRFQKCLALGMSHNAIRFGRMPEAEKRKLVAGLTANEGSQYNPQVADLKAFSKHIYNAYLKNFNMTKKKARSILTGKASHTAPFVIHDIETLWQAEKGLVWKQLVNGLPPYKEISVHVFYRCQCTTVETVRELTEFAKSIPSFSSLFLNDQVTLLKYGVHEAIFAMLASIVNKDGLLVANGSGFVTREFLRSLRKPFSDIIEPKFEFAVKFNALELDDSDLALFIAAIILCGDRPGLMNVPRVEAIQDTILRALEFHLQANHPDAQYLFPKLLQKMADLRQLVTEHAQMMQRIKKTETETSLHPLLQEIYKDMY
UniProt P19793: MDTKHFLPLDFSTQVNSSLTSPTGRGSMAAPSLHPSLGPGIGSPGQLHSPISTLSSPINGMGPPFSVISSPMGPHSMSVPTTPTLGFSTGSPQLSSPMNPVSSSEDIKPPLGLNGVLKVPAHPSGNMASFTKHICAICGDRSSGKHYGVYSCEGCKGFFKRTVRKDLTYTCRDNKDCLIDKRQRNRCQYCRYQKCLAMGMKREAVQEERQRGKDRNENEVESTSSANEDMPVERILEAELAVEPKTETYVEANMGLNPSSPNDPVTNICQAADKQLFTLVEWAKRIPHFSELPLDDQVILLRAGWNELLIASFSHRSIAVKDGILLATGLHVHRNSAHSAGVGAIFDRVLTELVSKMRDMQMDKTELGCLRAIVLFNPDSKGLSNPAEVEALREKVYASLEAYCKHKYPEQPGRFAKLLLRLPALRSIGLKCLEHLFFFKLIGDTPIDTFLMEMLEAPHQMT
UniProt P10828: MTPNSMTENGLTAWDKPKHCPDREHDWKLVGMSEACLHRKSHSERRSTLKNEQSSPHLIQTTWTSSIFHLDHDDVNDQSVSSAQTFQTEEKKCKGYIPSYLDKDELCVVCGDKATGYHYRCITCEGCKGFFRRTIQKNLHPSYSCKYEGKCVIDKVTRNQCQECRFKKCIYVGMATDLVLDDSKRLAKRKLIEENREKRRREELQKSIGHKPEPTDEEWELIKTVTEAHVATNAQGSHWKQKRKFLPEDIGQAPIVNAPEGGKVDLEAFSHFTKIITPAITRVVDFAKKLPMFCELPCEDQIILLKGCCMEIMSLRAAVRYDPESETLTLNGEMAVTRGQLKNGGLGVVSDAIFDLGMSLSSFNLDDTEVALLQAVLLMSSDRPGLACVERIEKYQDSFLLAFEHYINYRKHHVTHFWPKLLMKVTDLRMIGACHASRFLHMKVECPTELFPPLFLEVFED
UniProt Q07869: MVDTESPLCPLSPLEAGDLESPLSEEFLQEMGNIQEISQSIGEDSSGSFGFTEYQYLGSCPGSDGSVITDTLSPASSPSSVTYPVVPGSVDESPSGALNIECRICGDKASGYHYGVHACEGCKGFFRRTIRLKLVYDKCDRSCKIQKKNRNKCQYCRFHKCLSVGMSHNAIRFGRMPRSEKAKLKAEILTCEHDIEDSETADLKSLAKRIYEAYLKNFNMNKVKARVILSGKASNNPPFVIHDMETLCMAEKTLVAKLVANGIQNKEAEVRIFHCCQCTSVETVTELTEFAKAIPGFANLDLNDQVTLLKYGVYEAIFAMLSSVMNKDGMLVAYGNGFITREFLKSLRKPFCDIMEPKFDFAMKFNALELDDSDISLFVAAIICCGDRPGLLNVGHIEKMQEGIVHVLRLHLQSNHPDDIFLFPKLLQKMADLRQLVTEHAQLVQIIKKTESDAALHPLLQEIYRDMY

Columns and labels:
[1] = Cell Proliferation Assay against the HBL1 Cell Line (AID 651646; active = well fitted curve in the direction sought with a large enough effect; an effect the other way counts as inactive or inconclusive;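 note: cells exposed to compound for 48 h before reading; 100% = DMSO and 0% = 9.2 µM bortezomib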); settings: HBL1 DLBCL cells; at 46.1 µM (top of the series) unless noted
Outline: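 After a 48 h incubation of 500 HBL1 cells/well in phenol red-free RPMI plus 5% FBS, relative luciferase units from CellTiter-Glo gave percent activity against DMSO and 9.2 uM bortezomib (final) controls.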

[2] = molecular target: Estrogen receptor (Homo sapiens) (UniProt P03372); experiment: qHTS assay for small molecule agonists of estrogen receptor alpha signaling (AID 588514); settings: ER-alpha-UAS-bla HEK293, beta-lactamase ratio, 18 h, percent of full estradiol response, vehicle zero; at 76.8 µM (top of the series);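 note: 0% = vehicle only and 100% = reference agonist; nearly all actives have a fitted effect of over 70% in size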
[3] = molecular target: Androgen receptor (Homo sapiens) (UniProt P10275); experiment: qHTS assay for small molecule agonists of androgen receptor signaling (AID 588515; active = well fitted curve in the direction sought with a large enough effect in the signal ratio, with a control signal flat; the % refers to the signal ratio; note: % is set by controls: 0 for no effect and ±100 for the full control effect); settings: AR-UAS-bla HEK293, beta-lactamase ratio, agonist 16 h; stronger effect = higher value
[4] = molecular target: Androgen receptor (Homo sapiens) (UniProt P10275); experiment: qHTS assay for small molecule antagonists of androgen receptor signaling (AID 588516; active = well fitted curve in the direction sought with a large enough effect in the signal ratio, with a control signal flat, not every such curve was filed as active; the % refers to the signal ratio; note: % is set by controls: 0 for no effect and ±100 for the full control effect); settings: AR-UAS-bla HEK293, beta-lactamase ratio, antagonist mode, 16 h; at 76.8 µM (top of the series)
[5] = molecular target: Bile acid receptor (Homo sapiens) (UniProt Q96RI1); experiment: qHTS assay for small molecule antagonists of farnesoid X receptor signaling (AID 588526); settings: HEK293T FXR-UAS-bla, beta-lactamase ratio, antagonist mode; at 76.7 µM (top of the series); note: % is set by controls: 0 for no effect and ±100 for the full control effect
[6] = molecular target: Bile acid receptor (Homo sapiens) (UniProt Q96RI1); experiment: qHTS assay for small molecule agonists of farnesoid X receptor signaling (AID 588527); settings: HEK293T FXR-UAS-bla, beta-lactamase ratio, 16 h; stronger effect = higher value;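 note: 0% = vehicle basal and 100% = reference agonist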
[7] = molecular target: Glucocorticoid receptor (Homo sapiens) (UniProt P04150); experiment: qHTS assay for small molecule agonists of glucocorticoid receptor signaling (AID 588532; active = well fitted curve in the direction sought with a large enough effect in the signal ratio, with a control signal flat; the % refers to the signal ratio;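 note: 100% = dexamethasone at 0.1 µM and 0% = DMSO only wells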); settings: HeLa MMTV-bla, beta-lactamase ratio, agonist, 18 h; stronger effect = higher value
[8] = molecular target: Glucocorticoid receptor (Homo sapiens) (UniProt P04150); experiment: qHTS assay for small molecule antagonists of glucocorticoid receptor signaling (AID 588533; active = well fitted inhibition curve with a large enough effect in the signal ratio, with a control signal flat, not every such curve was filed as active; the % refers to the signal ratio;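 note: cells stimulated with 2 nM dexamethasone as agonist; % is set by controls: 0 for no effect and ±100 for the full control effect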); settings: HeLa MMTV-bla, GRE beta-lactamase ratio, antagonist mode, 18 h; at 76.8 µM (top of the series)
[9] = molecular target: Peroxisome proliferator-activated receptor delta (Homo sapiens) (UniProt Q03181); experiment: qHTS assay for small molecule agonists of peroxisome proliferator-activated receptor delta signaling (AID 588534); settings: HEK293T PPARdelta-UAS-bla, beta-lactamase ratio, 18 h; at 76.7 µM (top of the series);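 note: 0% = DMSO basal wells and 100% = positive control agonist at 10 µM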
[10] = molecular target: Peroxisome proliferator-activated receptor gamma (Homo sapiens) (UniProt P37231); experiment: qHTS assay for small molecule agonists of peroxisome proliferator-activated receptor gamma signaling (AID 588536; active = well fitted curve in the direction sought with a large enough effect in the signal ratio, with a control signal flat, not every such curve was filed as active; the % refers to the signal ratio;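 note: 0% = DMSO basal wells and 100% = rosiglitazone at 2 µM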); settings: HEK293 PPARg-UAS-bla, beta-lactamase ratio, 16 h, percent of rosiglitazone response, DMSO as zero; at 76.7 µM (top of the series)
[11] = molecular target: Vitamin D3 receptor (Homo sapiens) (UniProt P11473); experiment: qHTS assay for small molecule antagonists of vitamin D receptor signaling (AID 588541); settings: HEK293T VDR-UAS-bla, beta-lactamase ratio, antagonist mode; at 76.7 µM (top of the series)
Outline: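 VDR-UAS-bla HEK293T cells (2000/well, 2% charcoal-stripped FBS) were treated with titrated compounds plus 1-alpha,25-dihydroxyvitamin D3 (50 nM or 3 nM final) for 16 h at 37 C. CCF4 beta-lactamase fluorescence was read; Hill fits gave IC50.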

[12] = molecular target: Vitamin D3 receptor (Homo sapiens) (UniProt P11473); experiment: qHTS assay for small molecule agonists of vitamin D receptor signaling (AID 588543); settings: HEK293T VDR-UAS-bla, beta-lactamase ratio, 16 h; at 76.8 µM (top of the series);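 note: 0% = DMSO basal and 100% = reference agonist control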
Outline: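 Reporter cells (HEK293T, VDR-UAS-bla) were seeded in medium with 2% charcoal-stripped serum and incubated 5 h, then compounds in concentration series were added for 16 h at 37 °C. Stimulation was scaled between DMSO basal and 50 nM 1α,25-dihydroxyvitamin D3.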

[13] = molecular target: Retinoic acid receptor RXR-alpha (Homo sapiens) (UniProt P19793); experiment: qHTS assay for small molecule agonists of retinoid X receptor alpha signaling (AID 588544); settings: HEK293T RXRa-UAS-bla, beta-lactamase reporter, 18 h; at 76.7 µM (top of the series);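 note: 0% = DMSO basal wells and 100% = reference agonist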
[14] = molecular target: Thyroid hormone receptor beta (Homo sapiens) (UniProt P10828); experiment: qHTS assay for small molecule agonists of thyroid hormone receptor beta signaling (AID 588545); settings: TR-UAS-bla GripTite HEK 293, beta-lactamase ratio, agonist mode, 18 h, percent of T3 response, DMSO as zero; at 76.7 µM (top of the series);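 note: 0% = DMSO only and 100% = 10 nM T3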
Outline: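 Compounds were tested as agonists in TR-UAS-bla-GripTite HEK 293 cells. After 18 hrs at 37 C, CCF4 substrate was added and fluorescence read after 2 hrs at room temperature.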

[15] = molecular target: Retinoic acid receptor RXR-alpha (Homo sapiens) (UniProt P19793); experiment: qHTS assay for small molecule antagonists of retinoid X receptor alpha signaling (AID 588546; active = well fitted inhibition curve with a large enough effect in the signal ratio, with a control signal flat, not every such curve was filed as active; the % refers to the signal ratio); settings: HEK293T RXRa-UAS-bla, beta-lactamase ratio, antagonist mode
Outline: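 Beta-lactamase reporter inhibition, read as CCF4 fluorescence ratio (ex 405, em 460/530 nm) after 2 h at RT. HEK293T UAS-bla cells, 2500/well, were stimulated with 9-cis-RA at 500 or 100 nM final alongside test compound for 18 h at 37 C.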

[16] = molecular target: Thyroid hormone receptor beta (Homo sapiens) (UniProt P10828); experiment: qHTS assay for small molecule antagonists of thyroid hormone receptor beta signaling (AID 588547; active = well fitted inhibition curve with a large enough effect in the signal ratio, with a control signal flat, not every such curve was filed as active; the % refers to the signal ratio); settings: TR-UAS-bla HEK293, beta-lactamase ratio, antagonist mode, 18 h; stronger effect = lower value
Outline: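 TR-UAS-bla GripTite HEK293 cells in 2% charcoal/dextran FBS medium were preincubated 4 h at 37 C, given compound (0.59 nM to 92 uM) plus 0.4 nM T3 (final) for 18 h, then CCF4 for 2 h at RT; Hill fit gave IC50.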

[17] = qHTS assay for small molecule activators of the p53 signaling pathway (AID 651743; active = well fitted activation curve with a large enough effect in the signal ratio, not every such curve was filed as active; the % refers to the signal ratio; note: % of control where 0% means no effect); settings: HCT-116 p53RE-bla, beta-lactamase FRET ratio, 16 h; activation: stronger effect = higher value
[18] = qHTS assay for small molecule activators of the nuclear factor-kappa B (NF-kB) signaling pathway (AID 651749; active = well fitted activation curve with a large enough effect in the signal ratio; the % refers to the signal ratio; note: % of control where 0% means no effect); settings: NF-kB-bla ME-180 cells, beta-lactamase FRET ratio, 16 h; stronger effect = higher value
Outline: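 Beta-lactamase reporter expression, controlled by NF-kB response elements in ME-180 cells, was quantified fluorometrically via FRET disruption; cells at 2,000/well had been incubated with 23 nL test compound for 16 hr.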

[19] = qHTS assay for environmental chemicals that activate the Aryl hydrocarbon Receptor (AhR) signaling pathway (AID 651777; active = well fitted curve in the direction sought with a large enough effect; an effect the other way counts as inactive or inconclusive; note: % of control where 0% means no effect; nearly all actives have a fitted effect of over 15% in size); settings: 1A2-DRE human hepatoma cells, luciferase, 24 h; stronger effect = higher value
Outline: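 Human hepatoma 1A2-DRE cells, stably carrying a dioxin response element and CYP1A2 promoter driving luciferase, were exposed to compounds for 24 hr at 37 C and 5% CO2. Luciferase signal was then read after 30 min One-Glo at room temperature.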

[20] = molecular target: Peroxisome proliferator-activated receptor alpha (Homo sapiens) (UniProt Q07869); experiment: qHTS assay for small molecule agonists of the peroxisome proliferator-activated receptor alpha (PPARalpha) signaling pathway (AID 651778; active = well fitted curve in the direction sought with a large enough effect; an effect the other way counts as inactive or inconclusive; note: % of control where 0% means no effect); settings: PathHunter PPARalpha complementation, chemiluminescence, 6 h; stronger effect = higher value
[21] = qHTS assay for small molecule agonists of the antioxidant response element (ARE) signaling pathway measured by Nrf2-dependant transcriptional activity (AID 720636; active = well fitted curve in the direction sought with a large enough effect in the repeat runs; an effect the other way counts as inactive or inconclusive;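 note: HepG2 cells with an ARE-driven luciferase reporter; % of control where 0% means no effect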); settings: ARE-luc HepG2, Nrf2 luciferase reporter, 16 h; at 92.4 µM (top of the series)
[22] = qHTS assay for small molecule agonists of the antioxidant response element (ARE) signaling pathway measured by Nrf2-dependant transcriptional activity - cell viability counter screen (AID 720653; active = well fitted curve in the direction sought with a large enough effect in the repeat runs; an effect the other way counts as inactive or inconclusive; note: % is set by controls: 0 for no effect and ±100 for the full control effect); settings: ARE-bla HepG2 viability, CellTiter-Glo ATP luminescence, 16 h; stronger effect = lower value
Outline: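 ARE-bla HepG2 cells (2,000/well) rested 5 hrs at 37C/5% CO2, then exposed to compounds in DMSO for 16 hrs. Viability was read in the same wells as intracellular ATP by luminescence, 30 min at room temperature after reagent addition.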

[23] = qHTS assay for cell viability of HEK293 cells (AID 743288; active = well fitted curve in the direction sought with a large enough effect; an effect the other way counts as inactive or inconclusive; note: % is set by controls: 0 for no effect and ±100 for the full control effect; nearly all actives have a fitted effect of over 50% in size); settings: ATP luminescence (CellTiter-Glo), 18 h; max response: stronger effect = lower value
Outline: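 Viable-cell counts were inferred from luciferase-based ATP content in HEK293 cells seeded at 2,000/well, pre-incubated ≥5 h, then dosed with DMSO-solubilised compounds for 18 h at 37 C.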

[24] = qHTS assay for cell viability of the p53RE-bla HCT-116 cell line (AID 743292; active = well fitted curve in the direction sought with a large enough effect; an effect the other way counts as inactive or inconclusive; note: % is set by controls: 0 for no effect and ±100 for the full control effect; nearly all actives have a fitted effect of over 55% in size)
Outline: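 CellSensor p53RE-bla HCT-116 cells, 4,000/well, preincubated 5 h at 37 C, then exposed to compounds in DMSO for 16 h at 37 C. Viability read as CellTiter-Glo luminescence (intracellular ATP) after 30 min at room temperature.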

CCOC(=O)N[C@@H]1CC[C@@H]2[C@@H](C1)C[C@H]1C(=O)O[C@H](C)[C@H]1[C@@H]2C=Cc1ccc(-c2cccc(F)c2)cn1
37.9%: viability, percent of control [1]

O=C(NOC[C@H](O)CO)c1ccc(F)c(F)c1Nc1ccc(I)cc1F
76.6%: viability, percent of control [1]

CC(C)OP(=O)(OC(C)C)SCCNS(=O)(=O)c1ccccc1
inactive: activation [2] 0.1% | activation [3] 3.97% | activity change, negative = inhibition [4] -6.45% | activity change, negative = inhibition [5] -10.9% | activation [6] 0.0274% | activation [7] -0.439% | activity change, negative = inhibition [8] 9.18% | activation [9] -6.21% | activation [10] -5% | activity change, negative = inhibition [11] 4.9% | activation [12] -0.335% | activation [13] -22.9% | activation [14] -1.57% | max response [15] -2.6% | inhibition [16] -16.9% | activation [17] -2.23% | activation [18] -2.8% | activation [19] 0.0724% | max response [20] -0.741% | activation [21] 0.813% | max response [22] -15.7% | max response [23] -12.7% | Potency [24]
